Compound activity: PubChem BioAssay, National Center for Advancing Translational Sciences (NCATS)
Nrf2 activator – activates Nrf2 signaling; AREc32 ARE-luciferase reporter (MCF7-derived line), luminescence, 24 h; Potency, µM (titrated, usually from 46.1 µM), without a hit: top-dose activation, actives largely listed as activators; hit rate 0.31% among 410,000; further: potency means the concentration at half of the fitted maximal effect; % of control where 0% means no effect; nearly all actives have a fitted effect of over 65% in size
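AREc32_Fluc, 1000 cells/well, OPTI-MEM + 5% FBS, o/n 37 deg C 5% CO2; 23 nL cpd by pin tool, 24 hr; Steady-Glo 30 min RT, luminescence.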
A549 viability – counter-screen for Nrf2 inhibitors: cytotoxicity in A549 cells; A549 ARE-Fluc cells, CellTiter-Fluor viability, 18-24 h; hit rate 0.16% among 390,000; Potency, µM (doses to about 46 µM), for inactives: top-dose activity change, negative = cytotoxicity, actives largely listed as inhibitors; further: potency means the concentration at half of the fitted maximal effect; on the % scale 0 is the no-effect control and ±100 the full control effect
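A549 ARE-Fluc cells in 5% FBS OPTI-MEM, 5000 cells/well, rested 2 h then exposed to compounds in concentration-response for 18-24 h at 37 °C. Viability by CellTiter-Fluor fluorescence (Ex 405/Em 525) after 30 min; luciferase luminescence (BugLite, 15 min, RT) read afterwards.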
ClpP mod – qHTS Assay for Activators of ClpP. ATP-dependent Clp protease proteolytic subunit (Bacillus subtilis (strain 168)), P80244. purified B. subtilis ClpP, FRET peptide cleavage, 20 min. Potency, µM (titrated, usually from 57.5 µM), inactives show at the top dose activity change, negative = active. hit rate 1.9% among 340,000. AID 651965, 2013; active means well fitted falling curve with a large enough effect; inconclusive means small, poorly fitted or top-dose-only effect; inactive means no such curve, though single readings can be large or run the other way; further: potency means the concentration at half of the fitted maximal effect; the source files actives as falling curves though it sought activators and does not explain the sign; nearly all actives have a fitted effect of over 65% in size
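ClpP 10 microg/mL final, pH 8 Tris/KCl buffer with BSA, glycerol, Tween-20; compound pinned in; FRET-FV substrate; RT 20 min; Ex320/Em430; ΔFRET vs ADEP 5.8 microM, DMSO, no enzyme.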
Nrf2 inh – blocks Nrf2 signaling; A549 ARE-Fluc reporter, luciferase luminescence, 18-24 h; Potency, µM (highest dose often 46 µM), for the others: top-dose activity change, negative = inhibition, hits mostly inhibitors; hit rate 2.1% among 360,000; AID 504444; further: potency means the concentration at half of the fitted maximal effect; on the % scale 0 is the no-effect control and ±100 the full control effect; nearly all actives have a fitted effect of over 60% in size
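Quantitative HTS in A549 cells stably bearing an antioxidant response element-firefly luciferase construct. Inhibition of Nrf2-driven transcription was scored by luminescence after 18-24 h of compound exposure at 37 °C.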
TCR activator – activators of T cell receptors | primary human leukocytes, anti-CD3, IL-2 HTRF, 48 h | AID 504894 | 330,000 tested, under 10 active | Potency, µM (doses to about 9.22 µM), for the others: at the top dose activation of IL-2 secretion, hits mostly activators; further: % of control where 0% means no effect
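TCR engagement came from a-CD3 beads alone, with compounds added to primary human leukocytes for 48 hr. Secreted IL-2 bridged europium cryptate- and d2-labelled anti-IL-2 antibodies, giving FRET emission at 665nm after 320nm excitation.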
miR-21 reporter – raises the signal of a miR-21 reporter | Potency, µM (doses to about 38.3 µM), for inactives: top-dose reporter change, positive = more light | HeLa miR-21 FLuc reporter, luciferase, 48 h | AID 2288 | 340,000 tested, under 10 active; active = well fitted rising curve with a large enough effect; inconclusive = small, poorly fitted or top-dose-only effect; inactive = no such curve, though single readings can be large or run the other way;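 also: % of control where 0% means no effect; miR-21 action dims this reporter so a rising signal means less miR-21 action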
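Luminescence from a firefly luciferase reporter carrying a miR-21 binding site downstream, stably expressed under a CMV promoter in HeLa cells that make miR-21 endogenously, reports miRNA modulation after 48 h compound exposure up to approximately 40uM final.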
* hit, by the source's call; ? = inconclusive; · = no result given; [ ] = remark or other dose. Hits are enriched below; roughly 3.7% of the tested compounds scored in any of these assays. Unless noted, the call rests on the fitted dose curve; in most records, active means well fitted curve in the direction sought with a large enough effect; inconclusive means small, poorly fitted or top-dose-only effect, or another doubt; inactive means no such curve, though single readings can be large; an effect the other way counts as inactive or inconclusive.

The chains behind the UniProt entries cited, without tags or fusion partners.
ATP-dependent Clp protease proteolytic subunit (Bacillus subtilis (strain 168)), P80244, UniProt P80244, whole entry, looked up: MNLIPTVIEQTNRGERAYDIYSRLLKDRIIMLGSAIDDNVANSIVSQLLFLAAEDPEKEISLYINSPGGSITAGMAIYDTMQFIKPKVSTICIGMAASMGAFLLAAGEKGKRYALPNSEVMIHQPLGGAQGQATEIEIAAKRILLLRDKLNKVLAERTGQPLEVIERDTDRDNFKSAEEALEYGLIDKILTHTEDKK

| compound | Nrf2 activator | A549 viability | ClpP mod | Nrf2 inh | TCR activator | miR-21 reporter |
| --- | --- | --- | --- | --- | --- | --- |
| Cc1cc2c3c([nH]c2cc1S(=O)(=O)N1CCC2(CC1)OCCO2)CC(C)(C)CC3=O | 3% | 16% | -11% | 23µM* | 3% | 3% |
| COc1cc(C=O)ccc1OCCOc1ccccc1[N+](=O)[O-] | 13µM* | 7% | -2% | 2% | 7%[46.1 µM] | -38% |
| COc1cc(C=O)ccc1OCCCOc1ccccc1C(=O)O | -2% | 11% | -9% | 8.2µM* | -15% | ? |
| O=C(Cn1c(=O)nc(-c2ccccc2)c2ccccc21)NCCc1ccccc1 | 0% | -10% | -1% | · | · | 9% |
| COc1cccc(Nc2cc(C)nc3nc(C)nn23)c1 | 2% | 20% | -3% | -25% | -6% | -4% |
| COc1cccc(CNc2nc3nc(C)cc(C)n3n2)c1 | 1% | -1% | 20µM* | 16% | -2% | -35% |
| Cc1c(-c2nc(-c3ccc4c(c3)OCO4)no2)nnn1-c1ccc(C(C)C)cc1 | 2% | -1% | -11% | ? | · | -4% |
| Nc1ccc(N(c2ccccc2)c2ccc(N)cc2)cc1 | -1% | -18% | 35µM* | ? | -11% | ? |
| CCn1c(C)nc2cc(C(=O)N/N=C(\C)c3ccc(OC)cc3O)ccc21 | 0% | -14% | · | 23µM* | -1% | 25% |
| CCn1c(C)nc2cc(C(=O)NN=C(C)c3ccc(C#N)cc3)ccc21 | 2% | 12% | · | ? | -2%[46.1 µM] | · |
| CC(C)(C)NC(=O)C[C@H]1C[C@H](C(=O)N2CCCCC2)[C@@]2(C)c3[nH]c4ccc(Cl)cc4c3CCN2C1=O | 0% | ? | -4% | 16µM* | -23%[46.1 µM] | · |
| COc1ccc2[nH]c3c(c2c1)CCN1C(=O)C(CC(=O)NCCc2ccccn2)C[C@H](C(=O)N2CCCCC2)[C@@]31CCc1ccccc1 (stereo partly specified) | 0% | -27% | -1% | 21µM* | -20%[46.1 µM] | · |
| COc1ccc2[nH]c3c(c2c1)CCN1C(=O)C(CC(=O)NCc2ccco2)C[C@H](C(=O)N2CCCCC2)[C@@]31CCc1ccccc1 (stereo partly specified) | -1% | -26% | -10% | 23µM* | 0%[46.1 µM] | · |
| COCCCNC(=O)CC1C[C@H](C(=O)N2CCCCC2)[C@@]2(CCc3ccccc3)c3[nH]c4ccc(OC)cc4c3CCN2C1=O (stereo partly specified) | 0% | -10% | -1% | -20% | 1%[46.1 µM] | · |
| O=C(C[C@H]1C[C@H](C(=O)N2CCCCC2)[C@@]2(CCc3ccccc3)c3[nH]c4ccc(Cl)cc4c3CCN2C1=O)NCCc1ccccn1 | 0% | ? | -2% | 21µM* | 0%[46.1 µM] | · |
| O=C(CC1C[C@H](C(=O)N2CCCCC2)[C@@]2(CCc3ccccc3)c3[nH]c4ccccc4c3CCN2C1=O)NCc1ccco1 (stereo partly specified) | 0% | -23% | -2% | ? | -1% | · |
| COCCN1C[C@@H](CO)O[C@@H](n2cnc3c(N(C)C(C)C)ncnc32)C1 | 1% | · | 2% | · | · | · |
| CN[C@@H](CO)C(=O)NC[C@H]1O[C@@H](n2cnc3c(N)ncnc32)[C@H](O)[C@@H]1O | -1% | · | 0% | · | · | · |
| O=C(Nc1ccc2ccccc2c1)c1cn(-c2ccccc2)nc1-c1cccs1 | 3% | -18% | 32µM* | ? | 1% | -21% |
| Cc1cc(C)n2c(Br)c(CSc3nc4ccccc4o3)nc2n1 | ? | 0% | 28µM* | -18% | -5% | -52% |
| CCc1nc2ccc(C(=O)NCCCN3CCCC3=O)cn2c1N(C)C(=O)Nc1ccccc1OC | 0% | · | -2% | · | · | · |
| CCC(C)[C@H](NC(=O)[C@@H]1Cc2c([nH]c3ccccc23)C2c3ccccc3C(=O)N21)C(=O)N1CCC[C@@H]1C(=O)O (stereo partly specified) | 3% | 0% | -13% | ? | -13% | -1% |
| O=S(=O)(c1cccc(Br)c1)N1CCN(c2nc(-c3cccs3)nc3ccccc23)CC1 | · | 3% | ? | -2% | · | · |
| O=C(Cn1cnc2ccccc2c1=O)c1ccc2ccccc2c1 | 0% | -2% | 32µM* | ? | 4% | -68% |
| Nc1nc2sc3c(c2cc1C(=O)NCC(=O)O)CCCC3 | -1% | 4% | -1% | 8.2µM* | 1% | 24% |
| Nc1nc2sc3c(c2cc1C(=O)N1CCOCC1)CCCC3 | 0% | -5% | ? | 9% | -2% | -33% |
| CCc1cc2c3c(c(=O)oc2cc1O)CCCC3 | 1% | -3% | 10µM* | 25% | 4% | -12% |
| O=C(Nc1ccc([N+](=O)[O-])cc1)c1ccc(Cn2cc([N+](=O)[O-])cn2)cc1 | 0% | -14% | 0% | 18µM* | -2% | 22% |
| O=C(Nc1cnn(Cc2ccc(Cl)cc2)c1)c1ccc([N+](=O)[O-])cc1 | -1% | -3% | 0% | ? | 1% | 25% |
| O=C(Nc1ccncc1)c1ccc(-c2ccccc2)cc1 | 3% | 0% | -12% | 2.3µM* | 5% | -17% |
| O=C(Nc1ccc(Cl)c(Cl)c1)c1ccc(Cn2cc(Cl)cn2)cc1 | 18% | ? | -6% | ? | -9%[46.1 µM] | -10% |
| CCOc1ccc(C(=O)Nc2cnn(Cc3ccc(Cl)c(Cl)c3)c2)cc1 | 2% | ? | -1% | 23µM* | -6% | 20% |
| O=C(Nc1ccc(Oc2cccnc2)cc1)c1ccc([N+](=O)[O-])cc1 | 0% | 2% | · | 15% | 7% | 0% |
| O=C(Nc1ccc(Nc2ccncc2)cc1)c1ccc([N+](=O)[O-])cc1 | 6% | 1% | 2% | 18µM* | -4% | -2% |
| CC(C)C[C@@H](CN1CCC[C@@H]1CN1C(=S)NC[C@@H]1Cc1ccc(O)cc1)N1C[C@H](Cc2ccc(O)cc2)N(CCc2ccccc2)C1=S | -2% | · | -5% | · | · | · |
| Cc1oc2cc3oc(=O)c(CCC(=O)N[C@H](C(=O)O)C(C)C)c(C)c3cc2c1C | 0% | -1% | -1% | 16% | -1% | -8% |
| C[C@H](CO)N1C[C@H](C)[C@H](CN(C)S(=O)(=O)c2ccccc2F)OCc2cnnn2CCCC1=O | 0% | · | -1% | · | · | · |
| CCCCN1CC(c2nc3ccccc3n2CCCCOc2ccc(C)c(C)c2)CC1=O (stereo unspecified) | -3% | 6% | 0% | 0% | · | -1% |
| COC(=O)C1=C(C)NC(=O)/C1=C\c1cc(C)n(-c2c(C)cccc2C)c1C | 6% | 21µM* | -3% | 23µM* | · | 2% |

Whole records, quoted from the list. Values in the order: Nrf2 activator, A549 viability, ClpP mod, Nrf2 inh, TCR activator, miR-21 reporter
Listed for CCCCN1CC(c2nc3ccccc3n2CCCCOc2ccc(C)c(C)c2)CC1=O (stereo unspecified) = -3%, 6%, 0%, 0%, ·, -1%
Listed for Cc1oc2cc3oc(=O)c(CCC(=O)N[C@H](C(=O)O)C(C)C)c(C)c3cc2c1C = 0%, -1%, -1%, 16%, -1%, -8%
Listed for O=C(Nc1ccc(Nc2ccncc2)cc1)c1ccc([N+](=O)[O-])cc1 = 6%, 1%, 2%, 18µM*, -4%, -2%
Listed for CC(C)C[C@@H](CN1CCC[C@@H]1CN1C(=S)NC[C@@H]1Cc1ccc(O)cc1)N1C[C@H](Cc2ccc(O)cc2)N(CCc2ccccc2)C1=S = -2%, ·, -5%, ·, ·, ·
Listed for CCc1cc2c3c(c(=O)oc2cc1O)CCCC3 = 1%, -3%, 10µM*, 25%, 4%, -12%
